# Values quoted from earlier work as cited in patent publication US20220143023A1, “COMPOUNDS WITH ANTI-TUMOR ACTIVITY AGAINST CANCER CELLS BEARING EGFR OR HER2 EXON 20 INSERTIONS” (Board of Regents, The University of Texas System, priority 2019, published 2022).
# System: NSCLC patients with classical sensitizing mutations (L858R and exon 19 deletions)
# Conditions: Maemondo et al., 2010; cited from earlier work
structure (smiles),measurement,value
COc1cc2ncnc(Nc3ccc(F)c(Cl)c3)c2cc1OCCCN1CCOCC1 [Gefitinib],patients experiencing objective responses (OR),approximately 70%
